## Antibody variant affinities, Ab-14 light chain, assay B

All variants were tested on one target, the spike HR2 peptide PDVDLGDISGINAS (SARS-CoV-2).

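The starting antibody came from a phage panning campaign against this peptide. Designed CDR sequences, proposed from the first random library and measured here. Group labels follow the data file (Ctrl: baseline library sampled from a position-specific scoring matrix, with some repeated check sequences; Rand: our label for a block that the file lists under HC and that is probably the random mutants of the ten best first-round binders; En: ensemble of fine-tuned language models; GP: Gaussian process model; HC: hill climbing; Gen: genetic algorithm; Gibbs: Gibbs sampling; a sequence that several methods proposed may carry one label only). The assay is AlphaSeq: two haploid yeast populations carry antibody and antigen on their surface. Binding brings cells together so that they mate, and sequencing counts the barcode pairs among the diploids. Scores were corrected for input abundance and mapped to Kd with protein pairs of known affinity run in the same pool. There are six technical replicates.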

Parent: Ab-14, a human scFv built as VH, three GGGGS repeats, VL. Only the CDRs of the light chain vary.
VH: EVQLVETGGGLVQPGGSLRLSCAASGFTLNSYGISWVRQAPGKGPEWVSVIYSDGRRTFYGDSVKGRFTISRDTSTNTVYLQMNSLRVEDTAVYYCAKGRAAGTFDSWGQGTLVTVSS
VL: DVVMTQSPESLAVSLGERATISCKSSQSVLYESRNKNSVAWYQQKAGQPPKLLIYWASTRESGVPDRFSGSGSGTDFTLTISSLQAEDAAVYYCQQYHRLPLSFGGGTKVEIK

Each variant is given by its three light chain CDRs, as the data file delimits them; those of the parent are KSSQSVLYESRNKNSVA, WASTRES, QQYHRLPLS. The Kd shown is the geometric mean over detected replicates; a lower Kd is a better binder. "not detected" marks a missing value. The strain was present, yet no cells mated with the target were sequenced in any replicate, which points to weak or no binding. A sequence measured in both rounds can read differently, since the two assays cover different ranges. The parent sequence was in this pool as ten entries: three were never detected, three once, and four in most replicates, with averages from 2.2 nM to 240 nM. The authors averaged sequences with at least three values out of six and counted those with two or fewer as poor binders. Nonspecific signal, from three strains lacking the peptide, appeared in 4% of pairings of all light chain designs, centred on 430 nM (5% of these signals below 38 nM); values are not corrected for it.

| # | Kd | detected | CDR-L1 | CDR-L2 | CDR-L3 | group |
|---|---|---|---|---|---|---|
| 1 | 730 pM | 6 of 6 | KVSQSVLYESRNKNSVA | EASTREQ | QQYHRLPLS | GP_Gen |
| 2 | 5.9 nM | 6 of 6 | MISQLYNMGSFAINSVA | QASQRNE | QQYDRLPLL | En_Gen |
| 3 | 3.2 nM | 6 of 6 | KLRQSTLYESRNKNSVA | WASTRLS | QQYHRLPLS | Rand |
| 4 | 8.4 nM | 5 of 6 | QSSQSVLYESRNKNSVA | QASTRES | QQYHRLPLS | Ctrl |
| 5 | 2.5 nM | 6 of 6 | KISQSGLYESRNKNSVA | WASTRES | QQYHRLPLS | Ctrl |
| 6 | 1.4 nM | 6 of 6 | KSSGSQLYEDGNKNSVA | SATQRES | QQYHRLPLS | GP_Gibbs |
| 7 | 5.1 nM | 6 of 6 | KSSYSYLEESRNKNSVA | EASTRES | QQYHRLPLS | GP_HC |
| 8 | 7.9 nM | 6 of 6 | KESQSWTYESRNKNSVA | GASTRES | QQYHRLPLS | GP_HC |
| 9 | 200 nM | 6 of 6 | RITYKAEQLERINSSVA | NGSARCF | QQYFMLPLS | En_Gibbs |
| 10 | 12 nM | 6 of 6 | KSSQSVLYESGNKNSVA | WASTRES | QQYNRLPLS | Ctrl |
| 11 | not detected | 0 of 6 | KSSQSVLYESRNKNSVA | WASTRES | QQYHRCPLC | Ctrl |
| 12 | 240 nM | 2 of 6 | ILYESVGTLSRNKNSVA | DNSTREK | QQYDRLPLS | En_HC |
| 13 | 2.5 nM | 6 of 6 | KLYQSMGYLSRMKNSIA | DMSRRES | QQYHRLPLS | En_HC |
| 14 | not detected | 0 of 6 | QSMQSVLYESMNKNSVA | WASTRES | QQYHRWPLS | Ctrl |
| 15 | 950 pM | 6 of 6 | KLQQSGLYESRNKNSVA | NASTRES | QQYHRLPLS | GP_Gen |
| 16 | 7.6 µM | 2 of 6 | HLSFPWQSGHDSMHNVA | NDSTLMT | QHYNRLPLS | En_Gibbs |
| 17 | 670 pM | 6 of 6 | KVSQSELYESRNKNSVA | EASTRLS | QQYHRLPLS | GP_Gen |
| 18 | 35 nM | 6 of 6 | KLGQSVGYEQRNKSRVA | DNSTRES | QQYDRLPLS | En_HC |
| 19 | 70 nM | 3 of 6 | KLGETYEGNKRQRNSVA | HNSMREN | QQYDRLPLE | En_Gen |
| 20 | 3.2 nM | 6 of 6 | KFQQSQLYESRNMNSVA | NASQRMQ | QQYHRLPLK | GP_Gibbs |
| 21 | 4.5 nM | 6 of 6 | LVDQSNLYEQRNKNSVA | SASLRFS | QQYHRLPLS | GP_Gibbs |
| 22 | 150 nM | 6 of 6 | KALQSVLYESRRKNSVA | HASTRED | QQYHRLPLS | Rand |
| 23 | 60 nM | 6 of 6 | MISQLMQMGQFAINSVA | QASIRNE | QQYDRLPLE | En_Gen |
| 24 | 1.2 nM | 6 of 6 | KQQQLVWYEQRNKNSVA | DGSTRES | QQYHRLPLS | GP_Gibbs |
| 25 | 3.5 nM | 6 of 6 | KSLESWLYESRNKNSVA | HASTREQ | QQYHRLPLS | GP_HC |
| 26 | 530 pM | 6 of 6 | KLSQLDLYESRNKNSVA | NASTRES | QQYHRLPLS | GP_Gen |
| 27 | 690 nM | 6 of 6 | MVNGIMDHLSKNVNSVA | ETETRNS | QQYDRLPLS | En_Gen |
| 28 | 410 nM | 2 of 6 | QMFFQLFEQGNRSNPIA | HESMRET | QQYAYLPLT | En_Gibbs |
| 29 | 3.9 nM | 6 of 6 | IISQVDSYLSRNTNSIA | DQSTRGS | QQYDRLPLS | En_HC |
| 30 | 35 nM | 6 of 6 | MISQLYNMGSFAINSVA | QASERNI | QQYDRLPLI | En_Gen |
| 31 | 45 nM | 6 of 6 | KVSEFMRGLTQVKDSIA | DNVTRNN | QQYDRLPLS | En_Gen |
| 32 | 5.2 nM | 6 of 6 | KSSQSVQYESLNKNSVA | WASTRES | QQYHRLPLS | Ctrl |
| 33 | 7.1 nM | 6 of 6 | KLYSAKQGDIAQNQNVA | AADVLTQ | QQYNKLPLS | En_Gibbs |
| 34 | not detected | 0 of 6 | TISQMTFIESKNRNNVA | EMTTREN | QDYDRLPLS | En_HC |
| 35 | 260 nM | 3 of 6 | MMSMGYLGGMRAKNNVA | QEETREK | QQYFRLPLI | En_HC |
| 36 | 530 pM | 6 of 6 | YFSQSVLYESRTKNSVA | NASTRES | QQYHRLPLS | GP_HC |
| 37 | 870 pM | 6 of 6 | KVSIEVWGGDRNKNSVA | DASTRES | QQYHRLPLS | GP_Gibbs |
| 38 | 18 µM | 1 of 6 | KSSQSVLYESRNKNSVA | WASKRES | QQYHRLPFS | Ctrl |
| 39 | 560 pM | 6 of 6 | KSSQSNLYESRNKNSVA | NASTRES | QQYHRLPLS | Ctrl |
| 40 | 1.1 nM | 6 of 6 | KLQQSWLYESRNKNSVA | NASTRED | QQYHRLPLS | GP_Gen |
| 41 | 2.0 nM | 6 of 6 | TISQMSTLFSQSIQNVA | EVSTREQ | QQYDRLPLM | En_Gen |
| 42 | 360 pM | 6 of 6 | KVSQEVLYESRNKNSVA | DASTRES | QQYHRLPLS | GP_HC |
| 43 | 360 pM | 6 of 6 | KSSQSWGYESRNKNSVA | GASTRES | QQYHRLPLS | GP_HC |
| 44 | 6.1 nM | 6 of 6 | MLTMFNNENQGWSNNIA | DTNNVQE | QQYSRLPFM | En_Gibbs |
| 45 | 72 nM | 6 of 6 | HITYGMMVHGRHAKSIA | QAEERAK | QQYDRLPLA | En_Gen |
| 46 | 2.6 nM | 6 of 6 | KLSQSVLYESRVKNSVA | EAVTRES | QQYHRLPLS | GP_Gibbs |
| 47 | 1.0 nM | 6 of 6 | KFSISYLYESRNKNSVA | EASTRES | QQYHRLPLM | GP_HC |
| 48 | 2.5 nM | 6 of 6 | KQSWSVLFESRNKNSVA | DASTRSS | QQYHRLPLS | GP_HC |
| 49 | not detected | 0 of 6 | KLQNLMGTMGKQNQAIA | QGAITRV | QQYQHLPLW | En_Gibbs |
| 50 | 880 pM | 6 of 6 | KSQQSQLYESRNFNSVA | NASTRED | QQYHRLPLS | GP_HC |
| 51 | 90 nM | 6 of 6 | SLMQVAGYESNAHNSIA | DLRTRES | QQYHRLPLS | En_HC |
| 52 | 660 pM | 6 of 6 | KSSPSWLYESRNKNSVA | GASTREN | QQYHRLPLS | GP_HC |
| 53 | 540 pM | 6 of 6 | KVSQSVLYESRNKNSVA | EASTRES | QSYHRLPLS | GP_Gen |
| 54 | 1.9 nM | 6 of 6 | KISQSLLYESSNKNSVA | AASTRES | QQYHRLPLS | Ctrl |
| 55 | 1.0 nM | 6 of 6 | KLEQGWLYESRNKNSVA | NASQRES | QQYHRLPLS | GP_Gen |
| 56 | 23 nM | 6 of 6 | KISMLLNMTFNQSNNVA | EMATREK | QQYNRLPLS | En_Gen |
| 57 | 880 pM | 6 of 6 | KLSQDVLMESRNKNSVA | WASTREL | QQYHRLPLS | Ctrl |
| 58 | 6.7 nM | 5 of 6 | KSSESYLYESRNKNSVA | AASTREV | QQYHRLPLS | GP_HC |

The first 4 variants above that were never detected:

| CDR-L1 | CDR-L2 | CDR-L3 | group | Kd | detected |
|---|---|---|---|---|---|
| KSSQSVLYESRNKNSVA | WASTRES | QQYHRCPLC | Ctrl | not detected | 0 of 6 |
| QSMQSVLYESMNKNSVA | WASTRES | QQYHRWPLS | Ctrl | not detected | 0 of 6 |
| TISQMTFIESKNRNNVA | EMTTREN | QDYDRLPLS | En_HC | not detected | 0 of 6 |
| KLQNLMGTMGKQNQAIA | QGAITRV | QQYQHLPLW | En_Gibbs | not detected | 0 of 6 |

Reference: Li et al. 2023, doi:10.1038/s41467-023-39022-2. File: FLAb, binding data.